Molecular target: T1, RAMP2-CLR (AM1 receptor) (Homo sapiens, UniProt O60895+Q16602)
T1 construct: FLAG; expressed in transfected cells; host or cells: HEK-293 or HEK-293S cells, transient transfection, 1:1 RAMP:CLR
Experiment: S. cerevisiae growth assay, GPA1/Gαq chimera, RAMP2 + CLR
Format: cell-based
Procedure: FIGURE 7. […] Reporter gene activity was determined following 24-h stimulation. All data are expressed as percentage of the maximum response observed in yeast strain MMY11 and are means ± S.E. of n individual data sets. D, Bar chart showing the efficacy of each ligand for each RAMP-CLR combination at the Gαq chimera determined via application of the operational model of receptor agonism (Ref. [34] and Table 1). Data were determined as statistically different from the cognate ligand for each receptor (***, p < 0.001; ****, p < 0.0001) using one-way ANOVA with Bonferroni's post-test. E, signaling bias plots were calculated as ΔΔ(τ/Ka) values on a logarithmic scale for each ligand and for each chimera G protein for the three individual RAMP-CLR complexes.
General yeast procedures were performed as described previously ([22], [24]). […] Receptor signaling was measured using the yeast growth assay as described previously ([24]). […] A fluorescein signal was detected as an increase in fluorescence (excitation wavelength = 485 nm, emission wavelength = 535 nm) as a measure of growth. Different concentrations of ligand (0.01 nM–100 μM) were assayed using 96-well plates, and fluorescence was detected using a Tecan Infinite M200 microplate reader (Tecan Ultra Evolution, Reading, UK) or a Mithras LB 940 microplate reader (Berthold Technologies, Harpenden, UK) for 20 h. […]

Amino acid sequences for entries named in this document (tags omitted). Residues count along the entry.
UniProt O60895, 43-175: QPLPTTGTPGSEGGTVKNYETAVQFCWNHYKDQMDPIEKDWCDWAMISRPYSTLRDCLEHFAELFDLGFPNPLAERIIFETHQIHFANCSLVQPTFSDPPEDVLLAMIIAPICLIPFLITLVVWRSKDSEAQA
UniProt Q16602, 23-461: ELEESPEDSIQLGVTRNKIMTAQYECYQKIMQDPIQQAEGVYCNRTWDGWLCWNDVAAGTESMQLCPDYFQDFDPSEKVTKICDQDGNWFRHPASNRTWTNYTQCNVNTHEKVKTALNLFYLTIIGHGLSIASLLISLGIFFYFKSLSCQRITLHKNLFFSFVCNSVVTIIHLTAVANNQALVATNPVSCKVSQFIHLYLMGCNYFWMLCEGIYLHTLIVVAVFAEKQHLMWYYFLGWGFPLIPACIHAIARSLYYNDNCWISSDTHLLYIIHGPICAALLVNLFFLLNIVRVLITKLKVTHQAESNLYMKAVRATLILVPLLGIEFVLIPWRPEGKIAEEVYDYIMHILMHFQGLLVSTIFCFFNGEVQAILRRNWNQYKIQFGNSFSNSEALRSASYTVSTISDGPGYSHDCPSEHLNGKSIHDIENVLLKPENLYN

CSCC[C@H](NC(=O)[C@H](CC(C)C)NC(=O)[C@H](CCC(N)=O)NC(=O)[C@H](Cc1c[nH]c2ccccc12)NC(=O)[C@H](CC(C)C)NC(=O)[C@H](CCCNC(=N)N)NC(=O)[C@H](Cc1c[nH]cn1)NC(=O)[C@H](CO)NC(=O)[C@H](CC(C)C)NC(=O)[C@H](CC(N)=O)NC(=O)[C@H](CCC(N)=O)NC(=O)[C@@H](NC(=O)[C@H](CCC(N)=O)NC(=O)[C@@H]1CSSC[C@H](NC(=O)CNC(=O)[C@@H](NC(=O)[C@H](CCCNC(=N)N)NC(=O)[C@H](CC(C)C)NC(=O)[C@H](CC(C)C)NC(=O)[C@H](CCC(N)=O)NC(=O)[C@H](C)NC(=O)[C@H](CCC(N)=O)NC(=O)[C@@H](N)[C@@H](C)O)C(C)C)C(=O)N[C@@H](C(C)C)C(=O)N[C@@H](CC(C)C)C(=O)NCC(=O)N[C@@H]([C@@H](C)O)C(=O)N1)C(C)C)C(=O)NCC(=O)N1CCC[C@H]1C(=O)N[C@@H](C)C(=O)NCC(=O)N[C@@H](CCCNC(=N)N)C(=O)N[C@@H](CCC(N)=O)C(=O)N[C@@H](CC(=O)O)C(=O)N[C@@H](CO)C(=O)N[C@@H](C)C(=O)N1CCC[C@H]1C(=O)N[C@H](C(=O)N[C@@H](CC(=O)O)C(=O)N1CCC[C@H]1C(=O)N[C@@H](CO)C(=O)N[C@@H](CO)C(=O)N1CCC[C@H]1C(=O)N[C@@H](Cc1c[nH]cn1)C(=O)N[C@@H](CO)C(=O)N[C@@H](Cc1ccc(O)cc1)C(N)=O)C(C)C [AM2, adrenomedullin 2]
EC50: 0.603 nM
Kd: 0.692 nM

Source: publication PMC5063977 (The Journal of Biological Chemistry, 2016)
